Results from ChEMBL document CHEMBL1137770, “Biological activity of endomorphin and [Dmt1]endomorphin analogs with six-membered proline surrogates in position 2” (Bioorg Med Chem, 2009).

The chains behind the UniProt entries cited, without tags or fusion partners.
UniProt P33533, whole entry, looked up: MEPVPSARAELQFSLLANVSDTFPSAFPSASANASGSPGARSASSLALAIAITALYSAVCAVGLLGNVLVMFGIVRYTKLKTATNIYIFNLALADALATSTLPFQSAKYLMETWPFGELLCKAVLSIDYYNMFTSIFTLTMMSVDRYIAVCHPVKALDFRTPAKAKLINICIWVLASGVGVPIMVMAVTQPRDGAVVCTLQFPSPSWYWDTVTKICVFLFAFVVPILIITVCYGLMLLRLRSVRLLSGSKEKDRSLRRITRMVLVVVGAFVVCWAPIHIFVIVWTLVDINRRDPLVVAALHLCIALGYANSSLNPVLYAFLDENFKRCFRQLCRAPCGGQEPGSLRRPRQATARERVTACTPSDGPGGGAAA
UniProt P33535, whole entry, looked up: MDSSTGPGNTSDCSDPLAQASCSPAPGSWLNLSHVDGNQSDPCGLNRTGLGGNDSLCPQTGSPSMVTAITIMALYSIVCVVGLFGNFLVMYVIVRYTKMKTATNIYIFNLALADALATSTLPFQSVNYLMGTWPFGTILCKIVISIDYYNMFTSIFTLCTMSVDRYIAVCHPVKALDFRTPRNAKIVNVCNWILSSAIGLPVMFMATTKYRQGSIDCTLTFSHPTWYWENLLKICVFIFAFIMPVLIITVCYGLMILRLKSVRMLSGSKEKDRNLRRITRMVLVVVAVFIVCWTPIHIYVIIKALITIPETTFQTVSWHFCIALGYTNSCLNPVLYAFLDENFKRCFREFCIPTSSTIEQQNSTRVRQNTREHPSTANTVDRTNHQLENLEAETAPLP

Legend:
[1] = target: Delta-type opioid receptor (Rattus norvegicus, UniProt P33533); assay: Displacement of [3H][Ile5,6]deltorphin-2 from delta opioid receptor in Wistar rat brain membrane; details: strain Wistar
[2] = target: Mu-type opioid receptor (Rattus norvegicus, UniProt P33535); assay: Displacement of [3H]DAMGO from mu opioid receptor in Wistar rat brain membrane; assay type: cell membranes; details: strain Wistar

NC(=O)[C@H](Cc1ccccc1)NC(=O)[C@H](Cc1ccccc1)N(C=O)C1CCN(C(=O)[C@@H](N)Cc2ccc(O)cc2)CC1
IC50 [1]: > 1 µM | IC50 [2]: 0.36 µM
